Experimental data taken from BindingDB's records for doi:10.1021/acsmedchemlett.1c00450 (The Genomics Institute of The Novartis Research Foundation, 2021).

Target: Proto-oncogene tyrosine-protein kinase receptor Ret (Homo sapiens) (UniProt P07949)
Test: Inhibition of CCDC6-RET fusion protein (unknown origin) expressed in human LC-2-ad cells assessed as reduction in cell proliferation incubated for 6 days by d CellTiter Glo assay

COC(=O)NC12CCC(n3cc(-c4ccc(Cl)c(N)c4)c4c(N)ncnc43)(CC1)CC2
IC50: 0.11 µM
